Assay results published in article PMC3823413 (Journal of Cellular and Molecular Medicine, 2008).

Protein sequences, listed by entry. Tags and fused reporters are not part of them.
UniProt P30542, whole entry: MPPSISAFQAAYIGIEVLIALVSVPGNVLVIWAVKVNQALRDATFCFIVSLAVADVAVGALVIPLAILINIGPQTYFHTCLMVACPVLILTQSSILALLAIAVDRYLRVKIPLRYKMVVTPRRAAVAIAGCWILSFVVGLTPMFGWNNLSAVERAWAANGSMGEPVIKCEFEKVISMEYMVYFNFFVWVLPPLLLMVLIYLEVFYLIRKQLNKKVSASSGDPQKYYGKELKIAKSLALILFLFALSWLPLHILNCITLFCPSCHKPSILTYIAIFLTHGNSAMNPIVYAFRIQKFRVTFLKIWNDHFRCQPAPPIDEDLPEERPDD

Biological target: A1 receptors (Homo sapiens, UniProt P30542)
Assay: [3H]DPCPX binding to PMN
Conditions: native versus LPS-stimulated PMN; data not shown

[3H]CCC([3H])n1c(=O)c2[nH]c(C3CCCC3)nc2n(C([3H])CC[3H])c1=O (stereo not shown) [[^3H]DPCPX]
binding parameters of A1 receptors: no differences between native and LPS-stimulated PMN
